Article PMC2831815

Test system: Nc1ncnc2c1ncn2[C@@H]1O[C@H](COP(=O)(O)OP(=O)(O)OP(=O)(O)O)[C@@H](O)[C@H]1O
Assay: purified protein
Conditions: 10 mM MgCl2, pH 7.6, 37 °C, ATP 0.025-3.5 mM

In the case of TraJ (Aeromonas veronii), the Km is reported as 580 ± 100 µM.
